In assay [1] the test system is HCT-116 (p53 wild-type). Nature of the assay: Cell growth assay (WST-8). Type of assay: cell-based, human. (Formazan colour is commonly taken as a measure of viable cells.)
The test system of assay [2] is HCT-116 (p53—/—). Nature of the assay: Cell growth assay (WST-8). The class given is cell-based. As to conditions: Homo sapiens, HCT-116, read-out: IC50 HCT-116 (p53—/—).
For assay [3], the system named is PC-3 (deleted p53). Put plainly: Cell growth assay (WST-8). Type of assay: cell-based. As to conditions: read-out: IC50 PC-3 (deleted p53).
In assay [4] the test system is LNCAP (p53 wild-type). Put plainly: Cell growth assay (WST-8). The class given is cell-based, human. As to conditions: read-out: IC50 LNCAP (p53 wild-type).
Assay [5] relates to SJSA-1 (p53 wild-type). Nature of the assay: Cell growth assay (WST-8). The class given is cell-based.
For assay [6], the system named is RS4; 11 (p53 wt). Nature of the assay: cells. To be noted: Homo sapiens, RS4-11, read-out: RS4; 11 (p53 wt) IC50 (μM).
Where [7] appears, read: Homo sapiens, HCT-116, read-out: IC50 HCT-116 (p53 wild-type).
[8] abbreviates: Homo sapiens, SJSA-1, read-out: IC50 SJSA-1 (p53 wild-type).

Structures can show the parent of a compound that is named as a salt. Where two headings read alike, the source gives them in different places.

The values that follow come from patent US8680132B2, “Spiro-oxindole MDM2 antagonists” (priority 2010, dated 2014).

As for `CC(C)(C)C[C@@H]1N[C@@H](C(=O)N[C@H]2C[C@@](C)(O)C2)[C@H](c2cccc(Cl)c2)[C@]12C(=O)Nc1cc(Cl)ccc12` [(2′S,3′R,4′R,5′R)-6-Chloro-4′-(3-chloro-phenyl)-2′-(2,2-dimethyl-propyl)-2-oxo-1,2-dihydro-spiro[indole-3,3′-pyrrolidine]-5′-carboxylic acid (3-hydroxy-3-methyl-cyclobutyl)-amide, trifluoroacetate], the IC50 in assay [1] (setting [7]) worked out at 0.6 µM; in assay [2], 17.3 µM.
Consider `CC(C)(C)C[C@@H]1N[C@@H](C(=O)N[C@H]2C[C@@](C)(O)C2)[C@H](c2cccc(Cl)c2)[C@]12C(=O)Nc1cc(Cl)c(F)cc12` [(2′S,3′R,4′R,5′R)-6-Chloro-4′-(3-chloro-phenyl)-2′-(2,2-dimethyl-propyl)-5-fluoro-2-oxo-1,2-dihydro-spiro[indole-3,3′-pyrrolidine]-5′-carboxylic acid (3-hydroxy-3-methyl-cyclobutyl)-amide, trifluoroacetate], for which the IC50 in assay [1] (setting [7]) came to 0.2 µM; in assay [2] it was 21 µM; in assay [3], 26.7 µM.
The like results for `CC(C)(C)C[C@@H]1N[C@@H](C(=O)N[C@H]2C[C@@](C)(O)C2)[C@H](c2cccc(Cl)c2F)[C@]12C(=O)Nc1cc(F)c(F)cc12` [(2′S,3′R,4′S,5′R)-4′-(3-Chloro-2-fluoro-phenyl)-2′-(2,2-dimethyl-propyl)-5,6-difluoro-2-oxo-1,2-dihydro-spiro[indole-3,3′-pyrrolidine]-5′-carboxylic acid (3-hydroxy-3-methyl-cyclobutyl)-amide, trifluoroacetate] were, in that order, 0.6 µM, 16.4 µM and 15.6 µM.
`CC(C)(C)C[C@@H]1N[C@@H](C(=O)N[C@H]2C[C@@](C)(O)C2)[C@H](c2cccc(F)c2F)[C@]12C(=O)Nc1cc(Cl)ccc12` [(2′S,3′R,4′S,5′R)-6-Chloro-4′-(2,3-difluoro-phenyl)-2′-(2,2-dimethyl-propyl)-2-oxo-1,2-dihydro-spiro[indole-3,3′-pyrrolidine]-5′-carboxylic acid (3-hydroxy-3-methyl-cyclobutyl)-amide, trifluoroacetate]: the IC50 in assay [1] (setting [7]) is 0.2 µM; in assay [2], 13.2 µM.
For `CC(C)(C)C[C@@H]1N[C@@H](C(=O)N[C@H]2C[C@@](C)(O)C2)[C@H](c2cccc(Cl)c2F)[C@]12C(=O)Nc1cc(Cl)c(F)cc12` [(2′S,3′R,4′S,5′R)-6-Chloro-4′-(3-chloro-2-fluoro-phenyl)-2′-(2,2-dimethyl-propyl)-5-fluoro-2-oxo-1,2-dihydro-spiro[indole-3,3′-pyrrolidine]-5′-carboxylic acid (3-hydroxy-3-methyl-cyclobutyl)-amide, trifluoroacetate], the IC50 in assay [1] (setting [7]) amounted to 0.2 µM; in assay [2], 14.2 µM; in assay [3] it was 29.8 µM.
Consider `CC(C)(C)C[C@H]1N[C@@H](C(=O)N[C@H]2C[C@@](C)(O)C2)[C@H](c2cccc(F)c2F)[C@@]12C(=O)Nc1cc(Cl)ccc12` [C027], for which the IC50 in assay [1] (setting [7]) was under 3 µM; in assay [2] it was over 10 µM.
The like results for `CC(C)(C)C[C@H]1N[C@@H](C(=O)N[C@H]2C[C@@](C)(O)C2)[C@H](c2cccc(Cl)c2F)[C@@]12C(=O)Nc1cc(F)ccc12` [C031] were, in that order, under 3 µM and over 10 µM.
Regarding `CC(C)(C)C[C@H]1N[C@@H](C(=O)N[C@H]2C[C@@](C)(O)C2)[C@H](c2cccc(Cl)c2)[C@@]12C(=O)Nc1cc(Cl)ccc12` [C034], the IC50 is under 3 µM in assay [1] (setting [7]) and over 10 µM in assay [2].
For `CC(C)(C)C[C@H]1N[C@@H](C(=O)NC2CCC(O)CC2)[C@H](c2cccc(Cl)c2F)[C@@]12C(=O)Nc1cc(F)c(F)cc12` (stereo partly drawn) [MI-786], the results for the IC50 in assay [1] (setting [7]), in assay [4] and in assay [3] were 0.5 µM, 1.2 µM and 14.4 µM, respectively.
On to `CC(C)(C)C[C@H]1N[C@@H](C(=O)NC2CCC(O)CC2)[C@H](c2cccc(F)c2F)[C@@]12C(=O)Nc1cc(Cl)ccc12` (stereo partly drawn) [MI-7102], for which the IC50 is 0.42 µM in assay [5] (setting [8]); 0.2 µM in assay [1] (setting [7]); 0.25 µM in assay [4] (Homo sapiens, LNCaP); 26.8 µM in assay [2]; 19.1 µM in assay [3]; 0.46 µM in assay [6].
For the compound `CC(C)(C)C[C@H]1N[C@@H](C(=O)NC2CCC(O)CC2)[C@H](c2cccc(Cl)c2F)[C@@]12C(=O)Nc1cc(F)c(F)cc12` (stereo partly drawn) [MI-7104], the IC50 was 0.9 µM in assay [5] (read-out: IC50 SJSA-1 (p53 wild-type)); 0.37 µM in assay [1] (read-out: IC50 HCT-116 (p53 wild-type)); 0.49 µM in assay [4]; 16.6 µM in assay [2]; 16.5 µM in assay [3]; 0.52 µM in assay [6].
With `CC(C)(C)C[C@H]1N[C@@H](C(=O)NC2CCC(O)CC2)[C@H](c2cccc(Cl)c2F)[C@@]12C(=O)Nc1cc(F)ccc12` (stereo partly drawn) [MI-7105], the IC50 in assay [5] (setting [8]) was found to be 0.26 µM; in assay [1] (setting [7]), 0.28 µM; in assay [4] (Homo sapiens, LNCaP), 0.18 µM; in assay [2], 18.7 µM; in assay [3], 21.3 µM; in assay [6], 0.37 µM.
As for `CC(C)(C)C[C@@H]1N[C@@H](C(=O)NC2CCC(O)CC2)[C@H](c2cccc(F)c2F)[C@]12C(=O)Nc1cc(Cl)ccc12` (stereo partly drawn) [MI-710201, (2′S,3′R,4′S,5′R)-6-Chloro-4′-(2,3-difluoro-phenyl)-2′-(2,2-dimethyl-propyl)-2-oxo-1,2-dihydro-spiro[indole-3,3′-pyrrolidine]-5′-carboxylic acid (4-hydroxy-cyclohexyl)-amide, trifluoroacetate], the IC50 in assay [5] (setting [8]) stood at 0.57 µM; in assay [1] (setting [7]) it was 0.25 µM; in assay [3], 19.3 µM; in assay [6], 0.54 µM.
On to `CC(C)(C)C[C@@H]1N[C@@H](C(=O)NC2CCC(O)CC2)[C@H](c2cccc(Cl)c2F)[C@]12C(=O)Nc1cc(Cl)c(F)cc12` (stereo partly drawn) [MI-710301], for which the IC50 was found to be 0.13 µM in assay [5] (setting [8]); 0.92 µM in assay [1] (setting [7]); 11.9 µM in assay [2]; 12.5 µM in assay [3]; 0.16 µM in assay [6].
`CC(C)(C)C[C@@H]1N[C@@H](C(=O)NC2CCC(O)CC2)[C@H](c2cccc(Cl)c2F)[C@]12C(=O)Nc1cc(F)c(F)cc12` (stereo partly drawn) [MI-710401, (2′S,3′R,4′S,5′R)-4′-(3-Chloro-2-fluoro-phenyl)-2′-(2,2-dimethyl-propyl)-5,6-difluoro-2-oxo-1,2-dihydro-spiro[indole-3,3′-pyrrolidine]-5′-carboxylic acid (4-hydroxy-cyclohexyl)-amide, trifluoroacetate]: the IC50 in assay [5] (setting [8]) stood at 0.9 µM; in assay [1] (setting [7]), 0.37 µM; in assay [4] (Homo sapiens, LNCaP), 0.49 µM; in assay [2], 16.6 µM; in assay [3] it was 16.5 µM; in assay [6], 0.66 µM.
`CC(C)(C)C[C@@H]1N[C@@H](C(=O)NC2CCC(O)CC2)[C@H](c2cccc(Cl)c2)[C@]12C(=O)Nc1cc(Cl)ccc12` (stereo partly drawn) [MI-710601, (2′S,3′R,4′R,5′R)-6-Chloro-4′-(3-chloro-phenyl)-2′-(2,2-dimethyl-propyl)-2-oxo-1,2-dihydro-spiro[indole-3,3′-pyrrolidine]-5′-carboxylic acid (4-hydroxy-cyclohexyl)-amide, trifluoroacetate]: the IC50 in assay [5] (setting [8]) came to 0.38 µM; in assay [4] (Homo sapiens, LNCaP), 0.21 µM; in assay [2] it was 11.5 µM; in assay [3] it was 18.4 µM; in assay [6], 0.13 µM.
